# Experimental data taken from PubChem BioAssay AID624291 (National Center for Advancing Translational Sciences (NCATS), 2012).
# The list shows a part of the results, in another mix than the full data. Some tests of the compounds listed are not included; inactive here does not mean inactive elsewhere. Inconclusive results are not listed. The source made the active and inactive calls. The call rests on the fitted dose curve; in most records, active means well fitted activation curve with a large enough effect; inconclusive means small, poorly fitted or top-dose-only effect; inactive means no such curve, though single readings can be large or run the other way.
# Assay: qHTS for Activators of Integrin-Mediated Alleviation for Muscular Dystrophy;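 further: 100% = response of the positive control SU9516; nearly all actives have a fitted effect of over 60% in size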
# Settings: alpha7betagal myoblasts, beta-gal FDG fluorescence, 48 h; at 38.3 µM (top of the series)
row,SMILES,activation
1,O=C(NCC1(N2CCCCC2)CCCCC1)c1cc([N+](=O)[O-])ccc1Cl,inactive: -66.7%
2,CN1[C@@H]2CC[C@H]1CC(OC(=O)C(O)(c1ccccc1)c1ccccc1)C2 (some centres undefined),inactive: -34.6%
3,COc1cc(SC)ccc1C(=O)NCC1(N(C)C)CCCCC1,inactive: 0%
4,CCN(CC)CC(C)C(C)OC(=O)C(O)(c1ccccc1)c1ccccc1 (centres undefined),inactive: -8.12%
5,CC(C)N1C(=O)CC2(CCN(CCOC(=O)C(O)(c3ccccc3)c3ccccc3)CC2)C1=O,inactive: -13%
6,Cc1ccc(C(=O)NCC2(N3CCCCC3)CCCCC2)cc1,inactive: -1.81%
7,CN(C)c1ccc(C(=O)NCC2(N(C)C)CCCCC2)cc1,inactive: 0.0692%
8,CN(C)C1CCCC1OC(=O)C(O)(c1ccccc1)c1ccccc1 (centres undefined),inactive: 5.56%
9,Cc1ccccc1C(=O)NCC1(N2CCCCC2)CCCCC1,inactive: -17.5%
10,O=C(NCC1(N2CCCCC2)CCCCC1)c1cc(F)c(F)cc1Cl,inactive: 0%
11,C=CCN1CCN(CCOC(=O)C(O)(c2ccccc2)c2ccccc2)CC1,inactive: 2.67%
12,COc1ccc(C(=O)NCC2(N(C)C)CCCCC2)cc1,inactive: 17.7%
13,O=C(NCC1(N2CCCCC2)CCCCC1)c1cccc(Br)c1,inactive: -58.9%
14,CCN1CCCC(OC(=O)C2(O)c3ccccc3C=Cc3ccccc32)C1 (centres undefined),inactive: 1.52%
15,Cc1cc(C(=O)NCC2(N3CCCCC3)CCCCC2)ccc1[N+](=O)[O-],inactive: 3.15%
16,COc1ccc(Cl)cc1C(=O)NCC1(N(C)C)CCCCC1,inactive: 0%
17,COc1cccc(C(=O)NCC2(N3CCCCC3)CCCCC2)c1,inactive: -6.41%
18,O=C(NCC1(N2CCCCC2)CCCCC1)c1cccc(Cl)c1,inactive: -18.9%
19,O=C(OC1CN2CCC1CC2)C(CO)(c1ccccc1)c1ccccc1 (centres undefined),inactive: 4.76%
20,C=C(C)C#CC(O)(C(=O)OC1CCN(C)CC1)c1ccccc1 (centres undefined),inactive: -12.2%
21,COc1ccc(Br)c(C(=O)NCC2(N3CCCCC3)CCCCC2)c1,inactive: 21.4%
22,O=C(OCCN1CCCC1)C(O)(c1ccccc1)c1ccccc1,inactive: -35.4%
23,CC(C)Oc1ccc(C(=O)NCC2(N(C)C)CCCCC2)cc1,inactive: 2.71%
24,CN(C)c1cccc(C(=O)NCC2(N(C)C)CCCCC2)c1,inactive: -27.1%
